Cneo AK release: causes C. neoformans cell lysis. actives 0.2% (n = 360,000). lysis activity, % at 15 µM. adenylate kinase release luminescence, 4 h; normalised: neutral wells 0, clomiphene wells 100. AID 651654;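 active means mean lysis activity across replicates of at least 80%, whatever share of replicates individually reach that level; inactive means mean lysis activity below 80%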
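Material – Cryptococcus neoformans yeast cells · Quantity – 5 × 10^6 yeast cells/mL · Buffer or medium – YPD medium · Compound – single dose · Timing – 4 h static compound exposure, 37 °C, read 1 h post-reagent · Signal – adenylate kinase release luminescence · Read-out basis – lysis from increased AK signal · Benchmarks – Clomiphene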
DENV2 CPE rescue: inhibitors of DENV2 cytopathic effect; DENV2-infected cells, cytopathic effect rescue, plate reader; CPE inhibition, % at 9.99 µM; actives 1.7% (n = 350,000); in the data active means CPE inhibition above about 20%, passing the limit was not always enough; inconclusive means no clear call, values can overlap the other calls; tested in BHK-21 cells;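 further: 0% = median of neutral control wells and 100% = median of positive control wells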
E-selectin induc: induces E-selectin expression in human endothelial cells. P16581. HUVEC E-selectin immunofluorescence imaging; normalized: neutral wells 0, TNF-alpha wells 100. activation, % at 7.58 µM. actives 0.37% (n = 260,000). AID 686992;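 active means mean E-selectin-positive cell signal at least 10% of the positive control, reached in at least 60% of replicates, without over 20% cell loss; inconclusive means no rule given, readout overlaps actives, possibly toxicity-flagged; inactive means the rest, including those meeting only one limit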
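material = human umbilical vein endothelial cells (HUVEC), E-selectin induction | quantity = 3,000 cells/well | medium = EGM-2 growth medium on 0.1% gelatin-coated wells | technique = immunofluorescence imaging | read-out basis = % PE-positive cells | control set = TNF-alpha positive control, DMSO neutral control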
UUG fidelity: modulators of start codon recognition fidelity in yeast. activity score, % at 18.7 µM. S. cerevisiae UUG-firefly luciferase reporter, luminescence/redox ratio. 350,000 compounds, 0.13% hits;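 active means replicate mean at a twofold rise or more, about +100% in these data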;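 further: firefly luciferase made from a UUG start codon reports start codon fidelity; reporter light over untreated wells divided by growth signal over untreated wells; some hits fall short of that in this replicate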
An asterisk follows results filed as active; u = inconclusive; x = not tested or not shown. Most compounds without a hit are left out; they make up all but 1.8% or so of the library.

The first three records (preview)
Each structure is followed by: Cneo AK release	DENV2 CPE rescue	E-selectin induc	UUG fidelity
1. O=S1(=O)CC(N2CCSCC2)CN1Cc1cn(Cc2ccc(Cl)cc2)nn1 (stereo not given)
    x	-5	0	x
2. CN(Cc1cn(Cc2ccccc2)nn1)C1CN(Cc2cn(Cc3ccccc3)nn2)S(=O)(=O)C1 (stereo not given)
    x	-7	0	x
3. CCN(C)C1CN(Cc2cn(Cc3ccccc3)nn2)S(=O)(=O)C1 (stereo not given)
    x	21*	0	x

Main list, repeating the preview:
Each structure is followed by: Cneo AK release	DENV2 CPE rescue	E-selectin induc	UUG fidelity
1. O=S1(=O)CC(N2CCSCC2)CN1Cc1cn(Cc2ccc(Cl)cc2)nn1 (stereo not given)
    x	-5	0	x
2. CN(Cc1cn(Cc2ccccc2)nn1)C1CN(Cc2cn(Cc3ccccc3)nn2)S(=O)(=O)C1 (stereo not given)
    x	-7	0	x
3. CCN(C)C1CN(Cc2cn(Cc3ccccc3)nn2)S(=O)(=O)C1 (stereo not given)
    x	21*	0	x
4. C[C@@H]1CN([C@@H](C)CO)C(=O)c2cc(NC(=O)C3CC3)ccc2O[C@@H]1CN(C)CC1CC1
    -2	-2	0	-6
5. Cc1ccc(-c2nnc(SCCC(=O)N3CCOCC3)o2)cc1
    x	-2	1	x
6. O=C(CCSc1nnc(-c2ccccc2)o1)N1CCOCC1
    x	27*	x	x
7. CCc1ccc(C(=O)NC(=S)NCc2cccnc2)cc1
    87*	6	1	-25
8. O=C(NCCS(=O)(=O)N1CCN(c2ccccc2)CC1)C1CCCC1
    -2	u	x	-3
9. O=C(NCCS(=O)(=O)N1CCN(c2ccccc2)CC1)C1CC1
    -1	104*	4	9
10. Cc1ccc(S(=O)(=O)N(C)C[C@@H]2Oc3ccc(NS(=O)(=O)c4cccs4)cc3CC(=O)N([C@H](C)CO)C[C@H]2C)cc1
    -4	-4	1	1
11. COc1ccccc1NC(=O)N1[C@@H]2CNC[C@H]1[C@@H]2c1ccc(-c2ccc(C#N)cc2)cc1
    x	4	-1	x
12. CC(C)NC(=O)N(C)C[C@@H]1Oc2c(NC(=O)c3ccc(-c4nccs4)cc3)cccc2C(=O)N([C@@H](C)CO)C[C@H]1C
    -2	1	52*	2
13. C[C@@H]1CN([C@H](C)CO)C(=O)c2cccc(NC(=O)c3ccc(-c4nccs4)cc3)c2O[C@@H]1CN(C)C(=O)Nc1ccc(F)cc1
    -6	63*	-14	7
14. C[C@@H]1CN([C@@H](C)CO)C(=O)c2cccc(NC(=O)c3ccc(-c4nccs4)cc3)c2O[C@@H]1CN(C)Cc1ccc(Cl)c(Cl)c1
    1	1	32*	4
15. C[C@@H]1CN([C@H](C)CO)C(=O)c2cccc(NC(=O)c3ccc(-c4nccs4)cc3)c2O[C@H]1CN(C)S(C)(=O)=O
    1	2	2	1
16. C[C@@H]1CN([C@@H](C)CO)C(=O)c2cccc(NC(=O)c3ccc(-c4nccs4)cc3)c2O[C@@H]1CN(C)S(C)(=O)=O
    -1	24*	-11	-3
17. COc1ccc(S(=O)(=O)Nc2ccc3c(c2)C(=O)N([C@@H](C)CO)C[C@@H](C)[C@H](CN(C)CC2CC2)O3)cc1
    -4	-11	0	35
18. COc1ccc(CN(C)C[C@@H]2Oc3c(NS(C)(=O)=O)cccc3C(=O)N([C@@H](C)CO)C[C@@H]2C)cc1
    8	1	0	x
19. C[C@H](CO)N1C[C@H](C)[C@@H](CN(C)C(=O)C2CC2)Oc2ncc(C3=CCCC3)cc2C1=O
    x	x	1	x
20. C[C@H](CO)N1C[C@H](C)[C@H](CN(C)S(=O)(=O)c2cccs2)Oc2c(NC(=O)c3nc4ccccc4s3)cccc2C1=O
    46	15	0	-6

More compounds follow:
Each structure is followed by: Cneo AK release	DENV2 CPE rescue	E-selectin induc	UUG fidelity
21. C[C@@H]1CN([C@@H](C)CO)C(=O)Cc2cc(NC(=O)CCN3CCOCC3)ccc2O[C@@H]1CN(C)C(=O)Nc1ccccc1
    x	x	0	-1
22. C[C@@H]1CN([C@@H](C)CO)C(=O)c2cccc(NC(=O)c3ccc(-c4nccs4)cc3)c2O[C@H]1CN(C)C
    0	73*	15	-4
23. NC[C@H](Cc1ccccc1)NCCCCC1CCCCC1
    -1	35*	0	0
24. O=C(c1cccnc1)N1C[C@@H]2[C@H](c3ccccc31)[C@H](CO)N2C(=O)Nc1ccccc1
    -2	16	0	18
25. CCN(CC)CCNC(=O)c1ccc(NC(=O)Cc2ccc(OC)c(S(=O)(=O)N3CCOCC3)c2)cc1
    1	40*	x	-8
26. COc1ccc(NC(=O)CN2CCc3ccccc3C2)cc1S(=O)(=O)N1CCOCC1
    x	51*	x	x
27. COc1ccc(CC(=O)Nc2cccc(C(C)=O)c2)cc1S(=O)(=O)N1CCOCC1
    0	u	0	-25
28. C[C@H](NC(=O)[C@H]1N[C@H]2c3ccc(C4=CCCC4)c(=O)n3C[C@H]2[C@@H]1CO)c1ccccc1
    -2	12	0	x
29. FC(F)(F)c1nc2ccccc2n1CCNc1nc(CN2CCCCC2)cs1
    0	30*	0	-39
30. C[C@@H]1CN([C@H](C)CO)C(=O)c2cc(NC(=O)Cn3cnnn3)ccc2O[C@@H]1CN(C)C(=O)Nc1ccc(C(F)(F)F)cc1
    0	59*	-2	-11
31. C[C@@H]1CN([C@@H](C)CO)C(=O)c2cc(NC(=O)Cn3cnnn3)ccc2O[C@@H]1CN(C)C(=O)Nc1ccc(F)cc1
    -1	0	0	12
32. C[C@@H]1CN([C@@H](C)CO)C(=O)Cc2cc(NC(=O)Cn3cnnn3)ccc2O[C@H]1CN(C)C(=O)Nc1ccc(C(F)(F)F)cc1
    52	1	415*	25
33. C[C@H](CO)N1C[C@H](C)[C@@H](CN(C)C(=O)Nc2ccc3c(c2)OCO3)Oc2ccc(NC(=O)Cn3cnnn3)cc2CC1=O
    -3	24*	0	1
34. C[C@@H]1CN([C@@H](C)CO)C(=O)c2cc(NC(=O)Nc3ccc(F)cc3)ccc2O[C@@H](C)CCCCO[C@H]1CN(C)C(=O)CCCN(C)C
    3	-6	0	37
35. C[C@H]1CN([C@@H](C)CO)C(=O)c2cc(NC(=O)CCN3CCOCC3)ccc2O[C@@H]1CN(C)C(=O)NC1CCCCC1
    -2	-6	9	10
36. CNC[C@H]1Oc2ccc(NC(=O)CCN3CCOCC3)cc2C(=O)N([C@H](C)CO)C[C@@H]1C
    -3	27*	0	-7
37. CC(C)NC(=O)N(C)C[C@H]1Oc2ccc(NC(=O)CCN3CCOCC3)cc2C(=O)N([C@@H](C)CO)C[C@H]1C
    -1	-3	46*	0
38. CC(C)NC(=O)N(C)C[C@@H]1Oc2ccc(NC(=O)CCN3CCOCC3)cc2C(=O)N([C@H](C)CO)C[C@H]1C
    -2	-2	65*	-10
39. CC(C)NC(=O)N(C)C[C@H]1Oc2ccc(NC(=O)Cc3ccccc3)cc2CC(=O)N([C@H](C)CO)C[C@H]1C
    0	-7	0	7
40. COc1ccc(-c2cc(C(=O)NCCCN3CCCC3=O)c3ccccc3n2)cc1
    -4	58*	0	-7

Part of the list above, limited to UUG fidelity and DENV2 CPE rescue:
# | mol | UUG fidelity | DENV2 CPE rescue
27 | COc1ccc(CC(=O)Nc2cccc(C(C)=O)c2)cc1S(=O)(=O)N1CCOCC1 | -25 | u
28 | C[C@H](NC(=O)[C@H]1N[C@H]2c3ccc(C4=CCCC4)c(=O)n3C[C@H]2[C@@H]1CO)c1ccccc1 | x | 12

The listing continues.
Each structure is followed by: Cneo AK release	DENV2 CPE rescue	E-selectin induc	UUG fidelity
41. O=C(NCCCN1CCCC1=O)c1cc(-c2ccc(F)cc2)nc2ccccc12
    1	0	x	-9
42. OCC[C@H]1C[C@@H](O)[C@H](O)[C@@]2(Cc3ccccc3CCO2)O1
    0	23*	0	-13
43. OCC[C@@H]1C[C@H](O)[C@@H](O)[C@@]2(CCc3ccccc3CO2)O1
    2	7	0	6
44. OCC[C@H]1C[C@@H](O)[C@H](O)[C@@]2(CCc3ccccc3CO2)O1
    1	48*	1	-2
45. OCC[C@H]1C[C@@H](O)[C@H](O)[C@@]2(CCCO2)O1
    -1	59*	0	-7

Screens from PubChem BioAssay.
